The source of these data is patent US20140308678.

Data set [1] deals with T1, K810A-RB1 (773-813).
T1 chain: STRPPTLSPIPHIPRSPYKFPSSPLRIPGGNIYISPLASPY

Data set [2] addresses T2, RB1 (773-928), recombinant.
T2 chain: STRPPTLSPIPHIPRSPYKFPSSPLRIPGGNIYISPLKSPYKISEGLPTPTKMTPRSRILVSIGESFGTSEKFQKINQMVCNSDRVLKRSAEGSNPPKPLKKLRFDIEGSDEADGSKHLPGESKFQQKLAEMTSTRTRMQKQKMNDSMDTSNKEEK

B1: His-SMYD2 (protein)
chain: MRAEGLGGLERFCSPGKGRGLRALQPFQVGDLLFSCPAYAYVLTVNERGNHCEYCFTRKEGLSKCGRCKQAFYCNVECQKEDWPMHKLECSPMVVFGENWNPSETVRLTARILAKQKIHPERTPSEKLLAVKEFESHLDKLDNEKKDLIQSDIAALHHFYSKHLGFPDNDSLVVLFAQVNCNGFTIEDEELSHLGSAIFPDVALMNHSCCPNVIVTYKGTLAEVRAVQEIKPGEEVFTSYIDLLYPTEDRNDRLRDSYFFTCECQECTTKDKDKAKVEIRKLSDPPKAEAIRDMVRYARNVIEEFRRAKHYKSPSELLEICELSQEKMSSVFEDSNVYMLHMMYQAMGVCLYMQDWEGALQYGQKIIKPYSKHYPLYSLNVASMWLKLGRLYMGLEHKAAGEKALKKAIAIMEVAHGKDHPYISEIKQEIESH
For B1, the “in vitro methyltransferase assay (fluorography)” value in data set [1] is “K810A-RB1 is not methylated by SMYD2”; in data set [2] it was “the C-terminal region (773 aa to 928 aa) of RB1 protein includes the methylation site(s)”.
